The target in the test is tankyrase 2 protein PARP domain, TNKS2P (GST-tagged) (Homo sapiens (Human), UniProt Q9H2K2). Briefly: TNKS2 autoparsylation (AP) biochemical assay, LC/MS detection of nicotinamide. Particulars: 20 nM enzyme, 250 μM NAD+, 60 min room temperature.

Amino acid sequences for entries named in this document (tags omitted). Residues count along the entry.
UniProt Q9H2K2, 959-1164: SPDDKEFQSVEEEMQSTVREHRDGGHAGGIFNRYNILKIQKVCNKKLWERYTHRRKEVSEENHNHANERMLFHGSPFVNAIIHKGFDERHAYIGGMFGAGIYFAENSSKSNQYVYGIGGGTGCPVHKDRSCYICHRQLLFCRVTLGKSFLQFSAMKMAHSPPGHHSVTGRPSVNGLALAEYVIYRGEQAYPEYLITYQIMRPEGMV

The term IC50 denotes the concentration needed to halve the response being measured. Turning to `COc1ccc(C(=O)C2CCN(C3CCN(CC(=O)Nc4nnc5n4CCS5)C3=O)CC2)cc1` (centres unmarked) [Example 32, N-(5,6-dihydrothiazolo[2,3-c][1,2,4]triazol-3-yl)-2-(3-(4-(4-methoxybenzoyl)piperidin-1-yl)-2-oxopyrrolidin-1-yl)acetamide], 21 ± 1 nM corresponded to half-maximal inhibition (IC50).

As to `COc1ccc2c(c1)CC1(CCN(C3CCN(Cc4nc5c(c(=O)[nH]4)COCC5)C3=O)CC1)C2=O` (centres unmarked) [Example 15, 2-((3-(5-methoxy-1-oxo-1,3-dihydrospiro[indene-2,4′-piperidine]-1′-yl)-2-oxopyrrolidin-1-yl)methyl)-7,8-dihydro-3H-pyrano[4,3-d]pyrimidin-4(5H)-one], half-maximal inhibition (IC50) was put at 18 ± 2 nM.

These data come from patent US9163003B2, “4-piperidinyl compounds for use as tankyrase inhibitors” (NOVARTIS AG, priority 2011, dated 2015).
